UUG fidelity: alters start codon recognition fidelity in yeast. S. cerevisiae UUG-firefly luciferase reporter, luminescence/redox ratio. 350,000 tested, 0.13% active. activity score, % at 18.7 µM. AID 602363;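 active means replicate mean at a twofold rise or more, about +100% in these data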;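 further: firefly luciferase made from a UUG start codon reports start codon fidelity; reporter light over untreated wells divided by growth signal over untreated wells; some hits fall short of that in this replicate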
Statin myotox sup: protects C2C12 myotubes from simvastatin toxicity; ATP luminescence, 48 h; scaled: DMSO 0, geranylgeraniol control 100; rescue of ATP level, % at 7.49 µM; 330,000 compounds, 0.78% hits; AID 602340;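 active means mean ATP rescue above about 67%, or every replicate alone reaching that limit, limit read from the data, passing the limit was not always enough; inconclusive means no clear call, values can overlap the other calls; inactive means mean under the limit and some replicate under it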;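 further: myotubes were challenged with 10 µM simvastatin during compound exposure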
esBAF inh: inhibitors of esBAF chromatin remodeling in mouse ES cells | AID 602393 | reporter increase, % at 12.5 µM | 350,000 compounds, 2% hits | Bmi1-luciferase knock-in reporter, 24 h; 100% = twice the neutral-well signal; in the data active means activation above about 40%; inconclusive means no clear call, values can overlap the other calls;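 further: 0% = median of the plate's neutral control wells and 100% = double that signal; a rise in the Bmi1 reporter signal indicates esBAF inhibition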
E-selectin induc: induces E-selectin expression in human endothelial cells. P16581. HUVEC E-selectin immunofluorescence imaging; normalized: neutral wells 0, TNF-alpha wells 100. activation, % at 7.58 µM. 260,000 compounds, 0.37% hits. AID 686992;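 active means mean E-selectin-positive cell signal at least 10% of the positive control, reached in at least 60% of replicates, without over 20% cell loss; inconclusive means no rule given, readout overlaps actives, possibly toxicity-flagged; inactive means the rest, including those meeting only one limit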
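Read-out basis: % PE-positive cells; Test system: HUVEC primary endothelial cells; Technique: immunofluorescence imaging; Dosing: single-point compound dose.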
PglD DTNB: PglD (C. jejuni) enzyme inhibition | purified PglD enzyme, DTNB colorimetric CoA detection | inhibition, % at 12.5 µM | 360,000 compounds, 0.098% hits | AID 602405; in the data active means inhibition above about 16%, passing the limit was not always enough; inconclusive means no clear call, values can overlap the other calls
PGC1a acetyl inh: PGC1a acetylation modulation, inhibitor mode; U2OS PGC1a acetylation, AlphaScreen anti-acetyl-lysine; with virally co-expressed GCN5 acetyltransferase; 350,000 compounds, 0.17% hits; inhibition, % at 15.6 µM; AID 651687;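 active means every replicate shows inhibition of at least 40%; inconclusive means mean inhibition at least 40% but some replicate below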;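 further: 0% = neutral control wells and 100% = positive control wells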
An asterisk follows results filed as active; u = inconclusive; x = not tested or not shown. Rows were chosen to be rich in hits. Some 2.8% of all compounds tested hit in one or more screens of this group.

The line under a structure holds: UUG fidelity | Statin myotox sup | esBAF inh | E-selectin induc | PglD DTNB | PGC1a acetyl inh
CC(C)(C)c1ccc(C(=O)Nc2ccc(C(=O)NCc3cccnc3)cc2)cc1
 : -5 | -55 | -26 | x | 6 | -101
CC(C)(C)C(=O)Nc1ccc(C(=O)NCc2cccnc2)cc1
 : -21 | 114* | 5 | x | 3 | -17
CCSc1ccc(NC(=O)c2cccnc2)cc1
 : -5 | x | 37 | x | 0 | -226
O=C(Cc1ccncc1)Nc1ccc2c(c1)[C@H]1C[C@@H](CC(=O)N3CCOCC3)O[C@@H](CO)[C@H]1O2
 : -1 | 1 | 0 | 0 | -4 | 2
C[C@@H]1CN([C@H](C)CO)C(=O)c2cc(NC(=O)CCCN(C)C)ccc2O[C@@H](C)CCCCO[C@@H]1CN(C)Cc1ccc(C(=O)O)cc1
 : x | x | x | 0 | x | 9
CCCNC(=O)C[C@H]1C[C@H]2c3cc(N(C)C)ccc3O[C@H]2[C@@H](CO)O1
 : x | x | x | 0 | x | x
COc1ccc2c3c([nH]c2c1)[C@@H](CO)N(C(=O)CN(C)C)CC31CCN(Cc2ccccc2Cl)CC1
 : x | x | x | 0 | x | -44
CCc1nc(SCC(=O)Nc2cc(C)on2)c2c(C)c(C)sc2n1
 : -7 | 130* | 0 | x | 3 | 7
N#Cc1cccc(-c2ccc([C@H]3[C@@H](CO)N4CCCCN(C(=O)Nc5ccc(F)cc5)C[C@@H]34)cc2)c1
 : 16 | x | x | -1 | -3 | -2
C[C@H](CO)N1C[C@H](C)[C@H](CN(C)CC2CCOCC2)Oc2ncc(C#C[C@@H](C)O)cc2C1=O
 : x | 4 | -2 | -1 | -5 | 8
Clc1ccc2nc(-c3ccc(Cl)nc3)[nH]c2c1
 : 2 | -33 | 58* | 0 | -2 | x
CC(C)Cc1nc2ccccc2[nH]1
 : -5 | 0 | -7 | 0 | -2 | x
CCC(C)SCc1nc2ccccc2[nH]1 (configuration not stated)
 : x | 121* | u | x | x | -12
O=C(Nc1ccccc1)N1C[C@@H]2[C@H](c3ccccc31)[C@H](CO)N2CC1CCCC1
 : -8 | -3 | 18 | -1 | -1 | -11
CO[C@H]1CN(C)C(=O)c2ccc(NS(=O)(=O)c3cn(C)cn3)cc2OC[C@H](C)N(CC2CC2)C[C@@H]1C
 : x | x | x | 0 | x | 13
C=CCOc1ccc(/C(O)=C2/C(=O)C(=O)N(CCCn3ccnc3)C2c2cccs2)cc1 (configuration not stated)
 : -19 | x | 44* | x | 2 | 11
C=CCOc1ccc2c(OC)c3ccoc3nc2c1OC
 : 2 | 92* | 48* | x | 7 | -2
CNC[C@@H]1OCCCC[C@@H](C)Oc2ccc(NS(=O)(=O)c3ccc(OC)cc3)cc2C(=O)N([C@H](C)CO)C[C@@H]1C
 : 6 | 7 | 4 | 0 | 1 | -4
O=C(NC(=S)Nc1cccc([N+](=O)[O-])c1)c1ccco1
 : x | -18 | 49* | x | x | 2
O=c1[nH]c2cc(Cl)ccc2n1-c1ccccc1
 : -2 | 100* | 6 | x | -2 | 16
O=Cc1c(Cl)[nH]c(=O)n1-c1ccccc1
 : -10 | x | x | x | 3 | 3
C[C@@H]1CN([C@@H](C)CO)C(=O)c2cc(C#C[C@@H](C)O)cnc2O[C@@H]1CN(C)C(=O)Cc1ccccn1
 : -7 | 12 | 7 | 0 | 2 | 4
CCC(=O)N1[C@@H](CO)[C@@H]2c3ccccc3N(C(=O)c3cccc(OC)c3)C[C@@H]21
 : -9 | 4 | 4 | 0 | 1 | 4
CN(C)c1ccc(/C=C/c2ccc3c4ccccc4ccc3[n+]2-c2ccccc2)cc1
 : 95 | -171 | -68 | 217* | 1 | 44*
CC(=O)N(C)C[C@H]1Oc2cc(C3=CCCCC3)ccc2S(=O)(=O)N([C@@H](C)CO)C[C@H]1C
 : x | -30 | x | 0 | x | -14
COc1cc(NC(=O)COc2ccccc2[N+](=O)[O-])ccc1NC(=O)c1cccs1
 : -10 | -7 | 50* | 0 | 3 | -1
COc1ccc(NC(=O)c2sccc2C)c([N+](=O)[O-])c1
 : -4 | -14 | 55* | x | 5 | 0
COc1ccc(NC(=O)c2cc(Cl)ccc2Cl)c([N+](=O)[O-])c1
 : -5 | -5 | 8 | x | 1 | x
COc1ccc(NC(=O)c2cccs2)c([N+](=O)[O-])c1
 : -22 | 7 | 86* | x | -2 | 0
COc1ccc(NC(=O)C/C(C)=N/NC(=O)c2cccs2)c([N+](=O)[O-])c1
 : -14 | -1 | 2 | x | 3 | x
CC(=O)Nc1ccc2c(c1)C(=O)N(C)[C@@H]1CC[C@H](CC(=O)NCc3ccccc3Cl)O[C@@H]1CO2
 : 4 | -2 | -9 | 0 | -4 | 5
O=C(C[C@@H]1C=C[C@H](NC(=O)Nc2ccc(F)cc2)[C@H](CO)O1)NCCN1CCCC1
 : -6 | 7 | 7 | 0 | -4 | 1
Cc1noc(C)c1S(=O)(=O)N(C)C[C@H]1OCCCC[C@H](C)Oc2ccc(N(C)C)cc2C(=O)N([C@@H](C)CO)C[C@@H]1C
 : 14 | 0 | 0 | x | 0 | -5
CCCCCOc1ccc(CN2CCOCC2)cc1Cl
 : -10 | x | 50* | x | 2 | x
CC(=O)N1CC2(CC(c3ccccc3F)=NO2)CN1c1ccc(Cl)cc1 (configuration not stated)
 : x | -4 | 55* | -1 | x | -5
CC(C)N1CC2(CC(c3ccc(Cl)cc3Cl)=NO2)CN1C(=O)c1ccc(C(C)(C)C)cc1 (configuration not stated)
 : 17 | -11 | 8 | 3 | -5 | -4
Cc1ccn2cc(-c3cccc(S(=O)(=O)N4CCCC4)c3)nc2c1
 : 15 | -42 | 47* | x | 0 | 1
Cc1ccn2cc(-c3cccc(S(=O)(=O)N4CC(C)OC(C)C4)c3)nc2c1 (configuration not stated)
 : -12 | -7 | 8 | x | 3 | -4
CCNC(=O)C[C@H]1CC[C@@H]2[C@@H](COc3ccc(NC(=O)Nc4c(C)noc4C)cc3C(=O)N2C)O1
 : -10 | 4 | 1 | 0 | -1 | 7
CC1=[N+](C)c2c(ccc3cccnc23)C1(C)C
 : x | x | x | 196* | x | 12
Cc1[nH]c2c(ccc3cccnc32)c1C
 : -4 | x | x | 0 | 0 | 12
O=C(c1ccco1)N(Cc1ccco1)c1ccc(O)cc1
 : -13 | 118* | -6 | x | 5 | -1
COc1cccc(NC(=O)N[C@@H]2CC[C@@H](CC(=O)N3CCCCC3)O[C@@H]2CO)c1
 : x | 3 | 0 | 0 | -3 | 5
C(#CC1CCCC1)c1ccc2c(c1)COc1c3ccccc3nn1-2
 : -4 | 4 | 60* | 0 | 2 | x
c1ccc(-c2nc3ccccc3o2)nc1
 : 3 | 3 | 46* | x | 1 | -3
Cc1cc(NC(=O)CCC2CCCCC2)no1
 : x | x | 10 | x | x | x
O=C(CC1CCCC1)Nc1ccc(Br)cc1
 : -5 | -3 | 67* | x | -12 | -16
O=C(CCC1CCCC1)Nc1ccc(Br)cn1
 : -3 | 0 | 55* | x | 3 | -2
Cc1ccnc(NC(=O)CCC2CCCCC2)c1
 : -26 | 11 | 49* | x | 0 | -22

By substructure: the compounds so far containing a thiophene ring, fused or not.
The line under a structure holds: UUG fidelity | Statin myotox sup | esBAF inh | E-selectin induc | PglD DTNB | PGC1a acetyl inh
CCc1nc(SCC(=O)Nc2cc(C)on2)c2c(C)c(C)sc2n1
 : -7 | 130* | 0 | x | 3 | 7
C=CCOc1ccc(/C(O)=C2/C(=O)C(=O)N(CCCn3ccnc3)C2c2cccs2)cc1 (configuration not stated)
 : -19 | x | 44* | x | 2 | 11
COc1cc(NC(=O)COc2ccccc2[N+](=O)[O-])ccc1NC(=O)c1cccs1
 : -10 | -7 | 50* | 0 | 3 | -1
COc1ccc(NC(=O)c2sccc2C)c([N+](=O)[O-])c1
 : -4 | -14 | 55* | x | 5 | 0
COc1ccc(NC(=O)c2cccs2)c([N+](=O)[O-])c1
 : -22 | 7 | 86* | x | -2 | 0
COc1ccc(NC(=O)C/C(C)=N/NC(=O)c2cccs2)c([N+](=O)[O-])c1
 : -14 | -1 | 2 | x | 3 | x

High-throughput results from PubChem BioAssay.
